Measurements published in patent US20100087406A1, “INDUCTION OF INNATE IMMUNITY BY VITAMIN D3 AND ITS ANALOGS” (CEDARS-SINAI MEDICAL CENTER, priority 2004, published 2010).
Several values for one entry are separate records, joined by “and”; a condition that tells them apart may be missing. Equal entries are not always repeated.

Assays:
[1] = test system: CDIIb; assay: Differentiation marker CDIIb mRNA in HL60Δ404 cells (Northern blot); details: HL60Δ404, 1×10^−7 M, 24 hours
[2] = test system: CAMP; assay: Induction of CAMP mRNA expression in U937 cells (QRT-PCR, RT-PCR, Northern blot); type: cell-based, human; details: for induction of CAMP mRNA (CAMP/18S): U937 positive control, 12 and 24 h, QRT-PCR (FIG. 10A)
[3] = test system: MMP8 (matrix metalloproteinase 8); assay: Induction of secondary granule gene MMP8 in U937 cells (RT-PCR); details: U937, 1×10^−7 M, 24 h
[4] = test system: CAMP; assay: Induction of CAMP mRNA in bone marrow cells of an AML patient (QRT-PCR); details: AML BM cells, 24 h
[5] = test system: CAMP; assay: Induction of CAMP mRNA in normal human BM-derived macrophages (QRT-PCR); details: BM Mφ, increasing concentration
[6] = test system: CAMP; assay: Induction of CAMP mRNA in normal human bone marrow cells (QRT-PCR); details: two normal human bone marrow cell samples, 1×10^−8 to 1×10^−6M, 72 or 120 h
[7] = test system: CDIIb; assay: Differentiation marker CDIIb mRNA in HL60R cells (Northern blot); details: 1×10^−7 M, 24 hours
[8] = test system: MPO (myeloperoxidase); assay: Induction of primary granule gene MPO in U937 cells (RT-PCR); details: U937, 1×10^−7 M, 24 h
[9] = test system: hCAP18; assay: hCAP18 protein expression in U937 cells (Western blot, immunofluorescence, ELISA)
[10] = test system: CD11b; assay: Differentiation marker CD11b mRNA in HL60 cells (Northern blot); type: cell-based, human; details: HL-60; 1,25[OH]2D3 1×10^−7 M or TPA 5 ng/ml; 1, 3 or 5 days
[11] = test system: CAMP; assay: Induction of CAMP mRNA expression in HL60 cells (Northern blot)
[12] = test system: CAMP; assay: Induction of CAMP mRNA in colon cancer cell line HT-29 (QRT-PCR); type: cell-based, human; details: HT-29, 1×10^−7 M, 24 hours
From the text: The X-axis represents (CAMP(ng)/18S(ng)), +/−SD.

## C=C1/C(=C\C=C2/CCC[C@]3(C)[C@@H]([C@H](C)CCCC(C)(C)O)CC[C@@H]23)C[C@@H](O)C[C@@H]1O [1,25(OH)2D3, 1,25-dihydroxyvitamin D3]
[1]
  CDIIb expression in response to treatment: induction of CDIIb
[2]; 1×10^−7 M, Northern blot (FIG. 2A)
  strength of CAMP induction, U937 compared with HL60: stronger in the U937 cell line
[2]; U937, 1×10^−6 M to 1×10^−9 M, 24 h, Northern blot
  dose responsiveness of CAMP induction: dose responsive
[2]; U937, 1×10^−7 M, 20 μg/ml cyclohexamide, 6 and 9 hours, Northern blot
  induction of CAMP gene expression in the presence of CHX: Induction of CAMP gene expression occurred in the absence of ongoing protein synthesis
[2]; U937, 1×10^−7 M, 24 h, RT-PCR
  CAMP expression in the granule gene specificity test: significantly upregulated
[2]; U937, 1×10^−7 M, 24 hours, Northern blot (FIG. 9)
  induction of CAMP mRNA expression: induced expression of CAMP mRNA in all three cell types
[2]; U937, 1×10^−7 M, measured at 0, 1, 3, 5 days
  time at which induction of the CAMP gene occurred: ≤ 1 days
[2]; U937, 1×10^−7 M, time course 1-24 hours
  begin of CAMP induction after addition: 1 to 3 h
[2]; U937, initial screen, 24 h, QRT-PCR and Northern blot
  induction of CAMP expression: induced CAMP expression significantly
[2]; U937, 1,25[OH]2D3 1×10^−7 M or TPA 5 ng/ml, 1, 3 or 5 days, Northern blot
  induction of CAMP mRNA: observed only with 1,25(OH)2D3
[2]
  induction of CAMP mRNA (CAMP/18S): strong induction of CAMP
[2]; listed as Vitamin D3
  induction of CAMP mRNA (CAMP/18S): induced CAMP mRNA expression in a dose-dependent manner in every cell type tested
[2]; five days of treatment
  duration of CAMP induction: continued throughout the five days of treatment
[3]
  induction of MMP8: No induction of these genes was observed
[4]
  dose dependence of CAMP mRNA induction: dose-responsive manner
[4]; two concentrations
  induction of CAMP mRNA over baseline: 6 fold and 11 fold
[5]
  induction of CAMP mRNA (CAMP/18S): Similarly strong induction of CAMP
[6]
  induction of CAMP mRNA (CAMP/18S): Similarly strong induction of CAMP
[6]; listed as Vitamin D3
  induction of CAMP mRNA (CAMP/18S): induced CAMP mRNA expression in a dose-dependent manner in every cell type tested
[7]
  CDIIb expression in response to treatment: lack of CDIIb expression
[8]
  induction of MPO: No induction of these genes was observed
[9]; U937, 1×10^−7 M, 18 h and 36 h, Western blot and immunofluorescent microscopy
  hCAP18 protein level compared with untreated cells: increased levels of hCAP18 were observed
[9]; U937, 24 h, ELISA
  hCAP18 in the medium: CAMP was secreted into the medium
[10]
  macrophage-like differentiation (induction of CD11b): promoted macrophage-like differentiation
[11]; HL60, 1×10^−7 M, measured at 0, 1, 3, 5 days
  time at which induction of the CAMP gene occurred: ≤ 1 days
[11]; HL60, Northern blot (FIG. 2 and FIG. 3)
  induction of CAMP expression: induction was observed
[11]; HL-60, 1,25[OH]2D3 1×10^−7 M or TPA 5 ng/ml, 1, 3 or 5 days, Northern blot
  induction of CAMP mRNA: observed only with 1,25(OH)2D3
[12]
  induction of CAMP mRNA: Induction of CAMP mRNA was observed
